# Experimental data as given in patent US8192749B2, “Methods of simultaneously treating ocular rosacea and acne rosacea” (priority 2003, dated 2012).
# Legend:
# [1] = statement in words; cited from earlier work
# [2] = test system: BALB/c 3T3 (CCL-163) cells; test: 3T3 Neutral Red phototoxicity assay (PIF and MPE valuations); details: mean photo effect, 3T3 cells with/without UVA 5 J/cm^2; <0.1 nonphototoxin, 0.1 to <0.15 probable phototoxin, >=0.15 clear phototoxin
substance,measurement,setting,value
tetracycline pyrazole [COL 5],biodistribution,[1],only limited biodistribution
same,MPE,[2],0.186
